The text below walks through data of patent US12180252B2, “Peptide derived from PEP27 peptide and uses thereof” (priority 2021, dated 2024).

Values after ≈ are worked out from the molar mass of the structure shown.

For one assay, the system named is E. coli ATCC25922. It is filed as cell-based, Escherichia coli. The following applies: E. coli ATCC25922, Gram-negative; 37° C., 18 hours. As for the experimental part: (§1) In order to evaluate the antimicrobial activity of the peptides prepared by the method of above 1, a minimal inhibitory concentration (MIC) value as the minimum concentration of a peptide, in which cells are not divided, was measured.
(§2) Specifically, the strains shown in Table 3 below were purchased, cultured in a medium having a constitutional composition suitable for each strain to a mid-log phase, and then diluted to a concentration of 2×10^4 cells/100 μl to prepare the product on a micro-titration plate (Nunc, USA). Then, PEP27, PEP27-1, PEP27-2 or PEP27-5 peptide synthesized in the above 1 was added to each well by serial dilution ½ times, followed by incubation at 37° C. for 18 hours.

A further assay has as its system E. coli CCARM1229. It is filed as cell-based, Escherichia coli. The following applies: E. coli CCARM1229, antibiotics-tolerant; 37° C., 18 hours. The protocol:
as §1, §2

Another assay has as its system P. aeruginosa ATCC27853. The following applies: P. aeruginosa ATCC27853, Gram-negative; 37° C., 18 hours. The protocol: as §1, §2
(§3) Specifically, subject strains were prepared by the method of above 2, and were treated with the antibiotics, that is, meropenem, ceftazidime, ceftriaxone or vancomycin, respectively, followed by determining MICs of the antibiotics.

In another assay the test system is S. aureus ATCC25923. The following applies: S. aureus ATCC25923, Gram-positive; 37° C., 18 hours. As for the experimental part:
as §1, §2, §3

A further assay concerns S. aureus ATCC29213. Conditions: S. aureus ATCC29213, Gram-positive; 37° C., 18 hours. As for the experimental part:
as §1, §2, §3

For a further assay, the system named is S. aureus MW2. Conditions: S. aureus MW2, antibiotics-tolerant; 37° C., 18 hours. As for the experimental part:
as §1, §2, §3

In another assay the test system is S. aureus USA300. The following applies: S. aureus USA300, antibiotics-tolerant; 37° C., 18 hours. The protocol:
as §1, §2, §3

For the compound `CC[C@H](C)[C@H](NC(=O)CN)C(=O)NCC(=O)N[C@@H](C)C(=O)N[C@H](C(=O)N[C@@H](CC(C)C)C(=O)N[C@@H](CCCCN)C(=O)N[C@H](C(=O)N[C@@H](CC(C)C)C(=O)N[C@H](C(=O)N[C@H](C(=O)NCC(=O)N[C@@H](CC(C)C)C(=O)N1CCC[C@H]1C(=O)N[C@@H](C)C(=O)N[C@@H](CC(C)C)C(=O)N[C@H](C(=O)N[C@@H](CO)C(=O)N[C@@H](Cc1c[nH]c2ccccc12)C(=O)N[C@H](C(=O)N[C@@H](CCCCN)C(=O)N[C@@H](CCCNC(=N)N)C(=O)N[C@@H](CCCCN)C(=O)N[C@@H](CCCNC(=N)N)C(=O)N[C@@H](CCC(N)=O)C(=O)N[C@@H](CCC(N)=O)C(N)=O)[C@@H](C)CC)[C@@H](C)CC)[C@@H](C)O)[C@@H](C)O)C(C)C)C(C)C` [Melittin], the Minimal inhibitory concentration with E. coli ATCC25922 came out at 2 µM (≈ 5.69 µg/mL); in the assay with E. coli CCARM1229 it was 2 µM (≈ 5.69 µg/mL); with P. aeruginosa ATCC27853 it was 2 µM (≈ 5.69 µg/mL); in the assay with S. aureus ATCC25923 it was 2 µM (≈ 5.69 µg/mL); in the assay with S. aureus ATCC29213 it was 2 µM (≈ 5.69 µg/mL); in the assay on S. aureus MW2 it was 4 µM (≈ 11.4 µg/mL). The compound further had a Minimal inhibitory concentration in the assay on S. aureus USA300 of 2 µM (≈ 5.69 µg/mL).
